Details: in vivo

Q: Which “Withdrawal from the study due to an adverse event” value does the source give for `CCOC(=O)c1cnc2[nH]ccc2c1N[C@@H]1CCCN(C(=O)CC#N)C1` [Compound I, ethyl (R)-4-((1-(2-cyanoacetyl)piperidin-3-yl)amino)-1H-pyrrolo[2,3-b]pyridine-5-carboxylate] here?
A: no patients in the Compound I group withdrew from the study due to an adverse event
